Antibody variant affinities, Ab-14 heavy chain, assay B

Antigen: PDVDLGDISGINAS, a 14-residue peptide of the SARS-CoV-2 spike HR2 region.

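The starting antibody came from a phage panning campaign against this peptide. Designed CDR sequences, proposed from the first random library and measured here. Their group label is 14H_En_HC (En: ensemble of fine-tuned language models; HC: hill climbing; a sequence that several methods proposed may carry one label only). Affinity was read by AlphaSeq, a pooled yeast mating assay with surface-displayed partners. The frequency of each diploid, read from paired DNA barcodes, reflects how well the two displayed proteins bind. A regression on co-assayed BCL2-family reference pairs converts the normalised counts of each replicate to an apparent Kd. Each pool was mated in six replicate cultures.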

Parent scFv Ab-14: VH joined to VL by a (GGGGS)3 linker. Changes lie in the heavy chain CDRs alone.
VH: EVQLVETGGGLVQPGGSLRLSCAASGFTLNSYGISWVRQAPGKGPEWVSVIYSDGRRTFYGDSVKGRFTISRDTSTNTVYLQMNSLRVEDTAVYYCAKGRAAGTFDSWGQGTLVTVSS
VL: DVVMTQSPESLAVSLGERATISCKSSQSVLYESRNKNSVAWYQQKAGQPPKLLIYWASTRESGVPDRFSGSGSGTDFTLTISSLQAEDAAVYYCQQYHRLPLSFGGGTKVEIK

The parent's heavy chain CDRs are GFTLNSYGIS, VIYSDGRRTFYGDSVK, GRAAGTFDS; each variant's own CDRs replace them letter for letter.
Affinities are written as log10 Kd with Kd in nM; a lower number is a better binder.
Replicates are averaged; those with no signal do not enter the mean.
An entry "n.d." has no value in the source: the pair was not observed among the diploids in that replicate. This suggests poor binding but is not conclusive.
The range of this assay differs from that of the first round, and the authors advise against merging the two.
As a blank, each scFv also met three strains without target: over all heavy chain designs, 1% of these pairings were detected, typically at 2.08 and seldom below 0.84. For each scFv, signals with the empty controls are counted beside the result, with their mean in brackets.
In the paper, a design with two or fewer of six values counts as a poor binder.

CDR-H1,CDR-H2,CDR-H3,"log10 Kd, replicates","log10 Kd (nM), mean",signal with controls
GFDLNEYGIS,VIYADGLRTSYADSVK,GQLAGTFDV,-0.47 -0.51 -0.72 -0.69 -0.68 -0.61,-0.61,0 of 18
GFDLNEYGIS,VIYADGMRTAYADSVK,GEAAGTFDQ,-0.46 -0.87 -0.75 -0.91 -1.16 -0.93,-0.85,0 of 18
GFDLNEYGIS,VIYADGRRTFYADSVK,GTAAGTFDV,0.11 -0.23 -0.23 -0.32 -0.41 -0.31,-0.23,0 of 18
GFNLEDYGIS,VIYADGQRTFYADSVK,GEVAGTFDV,-0.50 -0.30 -0.61 -1.26 -0.92 -0.83,-0.74,0 of 18
GFDINEYGIS,VIYADGRRTFYTDSVK,GENAGTFDS,-0.62 -0.39 -0.25 0.11 -1.13 -0.18,-0.41,0 of 18
GFDLNEYGIS,VIYADGRRTFYADSVK,GNHAGTFDI,n.d. n.d. n.d. n.d. n.d. n.d.,n.d.,0 of 18
GFNLNEYGIS,VIYADGRRTFYADSVK,GEHAGTFDI,0.93 0.42 -0.27 0.56 -0.13 1.02,0.42,0 of 18
GFDLNEYGIS,VIYADGRRTAYSDSVK,GTNAGTFDL,-0.12 -0.33 -0.51 -0.43 -0.27 -0.05,-0.29,0 of 18
GFDLNEYGIS,VIYADGRRTFYADSVK,GEAAGTFDI,n.d. n.d. n.d. n.d. n.d. n.d.,n.d.,0 of 18
GFDLNEYGIS,VIYADGKRTAYSDSVK,GNAGGTFDS,-0.36 0.21 0.20 -0.25 -0.06 0.00,-0.04,0 of 18
GFDLNEYGIS,VIYADGSRTFYADSVK,GETAGTFDQ,-0.37 -0.77 -0.87 -0.84 -0.84 -0.18,-0.65,0 of 18
GFDLNEYGIS,VIYADGMRTFYSDSVK,GTAGGTFDM,0.35 0.35 0.26 0.34 0.19 0.42,0.32,0 of 18
GFDLNEYGIS,VIYADGLRTFYTDSVK,GEFAGTFDV,0.71 1.90 1.08 0.38 0.61 0.98,0.94,0 of 18
GFDLNEYGIS,VIYADGRRTAYTDSVK,GNNAGTFDQ,-0.56 -0.37 -0.38 -0.62 -0.61 -0.53,-0.51,0 of 18
GFDLNEYGIS,VIYADGVRTFYADSVK,GESAGTFDQ,-0.06 -0.28 -0.27 0.04 -0.15 0.00,-0.12,0 of 18
GFDLNEYGIS,VIYADGRRTFYSDSVK,GEAAGTFDE,-0.12 -0.34 -0.15 -0.38 -0.45 0.16,-0.22,0 of 18
GFDLNEYGIS,VIYADGRRTFYADSVK,GEVAGTFDQ,-0.05 -0.03 0.14 -0.17 0.08 0.05,0.00,0 of 18
GFNLNEYGIS,VIYADGRRKFYADSVK,GNTAGTFDM,-1.48 -1.39 -1.58 -1.48 -1.32 -1.56,-1.47,0 of 18
GFDLNEYGIS,VIYADGLRTSYDDSVK,GQLAGTFDL,0.03 -0.19 0.01 -0.27 -0.29 0.08,-0.11,0 of 18
GFNLDEYGIS,VIYADGRRTFYADSVK,GEHAGTFDV,n.d. n.d. 0.62 n.d. 1.30 n.d.,0.96,0 of 18
GFDLEDYGIS,VIYADGRRTAYADSVK,GEIAGTFDL,n.d. -0.26 -0.68 -1.58 -0.49 -0.57,-0.72,0 of 18
GFDLDEYGIS,VIYADGRRTFYQDSVK,GNVAGTFDT,-0.82 1.29 -0.88 0.29 -0.33 0.58,0.02,0 of 18
GFDLNEYGIS,VIYADGVRTFYVDSVK,GVNAGTFDV,-0.64 -0.61 -0.86 -0.79 -0.61 -0.64,-0.69,0 of 18
GFDLNEYGIS,VIYADGRRTFYSDSVK,GEAGGTFDE,0.53 n.d. 0.30 -0.19 0.73 0.26,0.32,0 of 18
GFDLDEYGIS,VIYADGRRTYYQDSVK,GQAAGTFDQ,-0.67 -0.77 -0.60 -0.71 -0.72 -0.38,-0.64,0 of 18
GFDLNEYGIS,VIYADGRRTAYSDSVK,GTVAGTFDV,-0.45 -0.24 -0.29 -0.48 0.13 -0.38,-0.28,0 of 18
GFDLNEYGIS,VIYADGRRTAYIDSVK,GEIAGTFNV,0.30 -0.14 -0.17 -0.10 -0.19 0.04,-0.04,3 of 18 (1.86)
GFKLDEYGIS,VIYADGRRTFYTDSVK,GGNAGTFDV,-0.65 -0.62 -0.58 -0.83 -0.73 -0.65,-0.68,0 of 18
GFDLNEYGIS,VIYADGKRTAYIDSVK,GEAAGTFDL,-0.18 -0.39 -0.12 -0.48 -0.03 -0.40,-0.26,1 of 18 (2.25)
GFDLNEYGIS,VIYADGMRTFYVDSVK,GQLAGTFDF,-0.13 -0.14 -0.21 -0.38 -0.07 -0.17,-0.18,0 of 18
GFDLNEYGIS,VIYADGVRTFYKDSVK,GEAAGTFDQ,-0.62 0.01 -0.70 -0.10 0.18 -0.16,-0.23,0 of 18
GFDLNEYGIS,VIYADGMRTFYTDNVK,GQNAGTFDV,-0.36 -0.57 -0.48 -1.00 -0.78 -0.35,-0.59,0 of 18
GFDLNEYGIS,VIYADGRRTYYVDSVK,GQVAGTFDV,-0.48 -0.54 -0.83 -0.55 -1.11 -0.50,-0.67,0 of 18
GFDLNEYGIS,VIYADGRRTAYIDSVK,GNEAGTFDS,0.19 0.95 -0.14 -0.11 -0.04 -0.11,0.12,0 of 18
GFTLDEYGIS,VIYADGRRTFYADSVK,GEEAGTFDI,-0.23 -0.14 -0.34 -0.50 -0.25 -0.17,-0.27,0 of 18
GFDLNEYGIS,VIYADGRRTFYTDSVK,GEFAGTFDA,n.d. n.d. 0.79 n.d. 0.06 n.d.,0.43,1 of 18 (-0.18)
GFDLNEYGIS,VIYADGKRTFYTDSVK,GTNAGTFDM,-0.24 -0.52 -0.33 -0.44 -0.51 -0.49,-0.42,0 of 18
GFDLNEYGIS,VIYADGRRTAYKDSVK,GEAAGTFDQ,-0.23 -0.16 -0.06 -0.58 -0.48 -0.45,-0.33,0 of 18
GFNLNEYGIS,VIYADGVRTFYADSVK,GEIAGTFDF,-0.51 -0.50 -0.64 -1.08 -0.80 -0.72,-0.71,0 of 18
GFDLDEYGIS,VIYADGRRTFYSDNVK,GEAGGTFDI,n.d. n.d. n.d. n.d. n.d. n.d.,n.d.,1 of 18 (2.56)
GFDLEDYGIS,VIYADGRRTAYADSVK,GEIAGTFDV,0.08 -0.49 -0.03 -0.49 -0.53 -0.48,-0.32,0 of 18
GFDLNEYGIS,VIYADGQRTAYADSVK,GKAAGTFDF,0.03 -0.25 0.12 -0.54 -0.69 -0.32,-0.27,0 of 18
GFDLNEYGIS,VIYADGSRKFYADSVK,GENAGTFDV,-0.02 -0.26 0.63 -0.13 -0.41 0.32,0.02,0 of 18
GFDLNEYGIS,VIYADGMRTVYTDSVK,GNEAGTFDS,-0.13 -0.45 0.11 -0.03 -0.17 0.17,-0.08,0 of 18
GFDLNEYGIS,VIYADGRRTFYSDSVK,GEIAGTFDA,-1.02 -1.03 -1.15 -1.12 -0.98 -0.75,-1.01,0 of 18
GFDLDEYGIS,VIYADGMRTFYADSVK,GNIAGTFDT,-0.23 -0.12 -0.21 -0.10 0.43 -0.15,-0.06,0 of 18
GFDLDEYGIS,VIYADGMRTFYQDSVK,GNVAGTFDV,-0.57 -0.38 -0.44 -0.98 -1.16 -0.82,-0.73,0 of 18

Top 7 of the variants detected in all replicates, tightest first:

CDR-H1,CDR-H2,CDR-H3,"log10 Kd, replicates","log10 Kd (nM), mean",signal with controls
GFNLNEYGIS,VIYADGRRKFYADSVK,GNTAGTFDM,-1.48 -1.39 -1.58 -1.48 -1.32 -1.56,-1.47,0 of 18
GFDLNEYGIS,VIYADGRRTFYSDSVK,GEIAGTFDA,-1.02 -1.03 -1.15 -1.12 -0.98 -0.75,-1.01,0 of 18
GFDLNEYGIS,VIYADGMRTAYADSVK,GEAAGTFDQ,-0.46 -0.87 -0.75 -0.91 -1.16 -0.93,-0.85,0 of 18
GFNLEDYGIS,VIYADGQRTFYADSVK,GEVAGTFDV,-0.50 -0.30 -0.61 -1.26 -0.92 -0.83,-0.74,0 of 18
GFDLDEYGIS,VIYADGMRTFYQDSVK,GNVAGTFDV,-0.57 -0.38 -0.44 -0.98 -1.16 -0.82,-0.73,0 of 18
GFNLNEYGIS,VIYADGVRTFYADSVK,GEIAGTFDF,-0.51 -0.50 -0.64 -1.08 -0.80 -0.72,-0.71,0 of 18
GFDLNEYGIS,VIYADGVRTFYVDSVK,GVNAGTFDV,-0.64 -0.61 -0.86 -0.79 -0.61 -0.64,-0.69,0 of 18

Values reported by Li et al. 2023, doi:10.1038/s41467-023-39022-2 (FLAb copy).